Results as given in PubChem BioAssay AID434982 (The Scripps Research Institute Molecular Screening Center, 2010).
Only a part is listed here, and it is no random draw. The source made the active and inactive calls. Rule as the data show it: active = activation above about 2.2%; inactive = the rest.

Test: activates NOTCH signaling in reporter cells (AID 434982)
Details: NOTCH signaling luciferase reporter cells, luminescence; at 2.5 µM; stronger effect = higher value

SMILES	activation
O=C(OC1CN2CCC1CC2)c1cccc([N+](=O)[O-])c1 (configuration not stated)	inactive: -0.25%
CCOC(=O)/C(=N/Nc1ccc([N+](=O)[O-])cc1)N1CC1	inactive: 0.06%
